Experimental data taken from patent US10995067B2, “Treatment of Fabry disease” (Academia Sinica, priority 2016, dated 2021).

Chains of the proteins cited; added tags and fusions are not shown. Residues count along the entry.
UniProt P06280, 32-429 N215S: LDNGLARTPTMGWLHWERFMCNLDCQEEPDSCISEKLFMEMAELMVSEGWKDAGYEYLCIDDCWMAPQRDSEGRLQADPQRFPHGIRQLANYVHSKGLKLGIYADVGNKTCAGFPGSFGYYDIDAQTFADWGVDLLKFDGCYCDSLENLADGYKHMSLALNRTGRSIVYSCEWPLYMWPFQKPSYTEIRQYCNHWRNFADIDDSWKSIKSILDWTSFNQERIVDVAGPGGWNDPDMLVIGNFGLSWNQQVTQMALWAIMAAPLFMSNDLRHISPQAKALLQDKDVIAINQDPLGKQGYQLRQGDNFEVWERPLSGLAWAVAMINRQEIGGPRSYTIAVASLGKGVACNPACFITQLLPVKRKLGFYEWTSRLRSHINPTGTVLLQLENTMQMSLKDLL

Target: mutant α-Gal A in N215S lymphocytes (Homo sapiens, UniProt P06280, N215S)
Conditions: 0-50 μM for 4 days, then chase 0, 2 or 4 days without compound; FIG. 6

OC[C@H]1NC[C@H](O)[C@@H](O)[C@H]1O [DGJ]
durability of chaperoning: enzyme activity after removal of compound: dramatically decreased after 4 days
